Target: Adrenergic receptor beta (Homo sapiens, UniProt P08588+P07550+P13945)
Test: In vitro agonistic activity against cAMP accumulation level in CHO cells expressing human beta-AR receptor
Assay type: functional, cell-based

Sequences of proteins named here, by UniProt entry; tags and fusion partners are left off. A change or cut given only in a name is not applied to a line headed by its entry.
UniProt P08588: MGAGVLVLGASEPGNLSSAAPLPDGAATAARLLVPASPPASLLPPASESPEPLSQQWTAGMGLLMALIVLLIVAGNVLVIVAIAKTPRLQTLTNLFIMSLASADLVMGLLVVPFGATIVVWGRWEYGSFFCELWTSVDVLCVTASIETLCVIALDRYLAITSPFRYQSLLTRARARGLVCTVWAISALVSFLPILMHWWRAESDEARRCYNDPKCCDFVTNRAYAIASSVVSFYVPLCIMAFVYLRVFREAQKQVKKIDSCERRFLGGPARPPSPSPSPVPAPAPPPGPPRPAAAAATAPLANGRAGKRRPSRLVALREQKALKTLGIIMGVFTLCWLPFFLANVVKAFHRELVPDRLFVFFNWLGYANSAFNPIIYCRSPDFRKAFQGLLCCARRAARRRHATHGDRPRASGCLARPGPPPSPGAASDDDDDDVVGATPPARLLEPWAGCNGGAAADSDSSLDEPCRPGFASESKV
UniProt P07550: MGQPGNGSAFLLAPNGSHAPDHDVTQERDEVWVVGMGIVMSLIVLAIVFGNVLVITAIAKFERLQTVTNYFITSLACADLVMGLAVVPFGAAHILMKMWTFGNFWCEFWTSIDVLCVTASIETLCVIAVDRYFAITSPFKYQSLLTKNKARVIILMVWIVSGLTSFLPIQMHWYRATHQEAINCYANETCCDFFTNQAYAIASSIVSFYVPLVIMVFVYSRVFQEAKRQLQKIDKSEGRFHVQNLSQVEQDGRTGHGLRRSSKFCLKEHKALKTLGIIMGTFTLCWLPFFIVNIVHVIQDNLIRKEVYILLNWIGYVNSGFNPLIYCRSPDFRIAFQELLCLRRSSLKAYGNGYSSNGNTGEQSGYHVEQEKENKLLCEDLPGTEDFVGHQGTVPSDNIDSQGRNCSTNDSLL
UniProt P13945: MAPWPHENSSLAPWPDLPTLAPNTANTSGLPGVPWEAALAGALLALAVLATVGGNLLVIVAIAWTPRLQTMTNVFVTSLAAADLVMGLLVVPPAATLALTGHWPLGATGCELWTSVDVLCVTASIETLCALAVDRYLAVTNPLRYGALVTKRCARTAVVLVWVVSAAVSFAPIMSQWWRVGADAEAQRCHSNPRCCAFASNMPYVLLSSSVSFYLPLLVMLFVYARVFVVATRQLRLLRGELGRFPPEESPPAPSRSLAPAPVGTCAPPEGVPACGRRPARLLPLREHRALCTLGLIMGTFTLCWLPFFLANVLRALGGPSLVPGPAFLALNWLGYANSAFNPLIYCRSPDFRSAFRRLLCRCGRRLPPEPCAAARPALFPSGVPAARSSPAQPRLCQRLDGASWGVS

O=C(NC1CCCCC1)N1CCC(Nc2ccc(CCNC[C@H](O)COc3ccc(O)cc3)cc2)CC1 showed an EC50 of 0.077 µM.
